The source of these data is ChEMBL document CHEMBL3808316, “Design, synthesis and biological evaluation of novel tetrahydroisoquinoline quaternary derivatives as peripheral κ-opioid receptor agonists” (Bioorg Med Chem, 2016).

For data set [1], the system named is Mus musculus. In words: Sedative activity in sc dosed Kunming mouse assessed as […] after 20 mins by rotation test. The following applies: in vivo.
Data set [2] has as its system Mus musculus. Kind of data set: Antinociceptive activity in ip dosed mouse assessed as acetic acid induced writhing administered 30 mins prior to acetic acid challenge measured for 20 mins. On the technique in general: In writhing tests, fewer writhes than in controls are read as antinociception.

The term ED50 denotes the dose that gives a 50% effect, or the effect in half of the subjects. On to `CN(C(=O)Cc1ccc(Cl)c(Cl)c1)C1CCCCC1N1CCCC1` (configuration not stated), for which the ED50 in the data set on Mus musculus [1] amounted to 3.32 mg/kg; in the data set on Mus musculus [2], 0.885 mg/kg.
